Literature values, collected in patent publication US12138351B2, “Pharmaceutical composition for oral administration comprising aminopyrimidine derivative or pharmaceutically acceptable salt, hydrate, or solvate thereof” (Janssen Biotech, Inc., priority 2020, dated 2024).

Conditions: compared to the compound in the form of free-base

**Q.** Which solubility does the source give for “N-(5-(4-(4-((dimethylamino)methyl)-3-phenyl-1H-pyrazol-1-yl)pirimidine-2-ylamino)-4-methoxy-2-morpholinophenyl)acrylamide mesylate [Lazertinib mesylate]” here?
**A.** excellent
